Assay results reported in ChEMBL document CHEMBL1949601, “γ-Carbolines: a novel class of cannabinoid agonists with high aqueous solubility and restricted CNS penetration” (Bioorg Med Chem Lett, 2012).

Chains of the proteins cited; added tags and fusions are not shown.
UniProt P21554, whole entry: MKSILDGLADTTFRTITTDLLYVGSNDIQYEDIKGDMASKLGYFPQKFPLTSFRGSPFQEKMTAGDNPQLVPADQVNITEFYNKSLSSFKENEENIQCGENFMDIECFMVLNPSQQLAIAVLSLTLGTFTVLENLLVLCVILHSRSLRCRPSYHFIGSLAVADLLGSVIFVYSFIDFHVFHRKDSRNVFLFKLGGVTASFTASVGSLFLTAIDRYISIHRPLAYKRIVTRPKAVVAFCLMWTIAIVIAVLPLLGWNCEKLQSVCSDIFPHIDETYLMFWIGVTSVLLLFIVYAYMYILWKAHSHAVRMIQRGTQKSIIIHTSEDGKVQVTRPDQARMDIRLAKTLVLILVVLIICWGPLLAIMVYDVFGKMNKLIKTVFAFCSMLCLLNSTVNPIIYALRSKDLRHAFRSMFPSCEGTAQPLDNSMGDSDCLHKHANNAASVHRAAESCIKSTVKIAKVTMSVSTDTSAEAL

Columns and labels:
[1] = biological target: T1, Cannabinoid receptor 1 (Homo sapiens, UniProt P21554); assay: Displacement of [3H]-CP55,940 from human CB1 receptor expressed in HEK293 cells; type: cell-based
[2] = biological target: T1, Cannabinoid receptor 1; assay: Agonist activity at human CB1 receptor expressed in HEK293 EBNA cells by [35S]GTPgamma binding assay; type: functional, cell-based

With `CCCCCOc1ccc(C(=O)c2cccc3ccccc23)c2ccccc12` the Ki [1] was 35 nM and the EC50 [2] was 72 nM.
